Values of other authors, collected in US20150177227A1, “CELLULAR AND ANIMAL MODELS FOR SCREENING THERAPEUTIC AGENTS FOR THE TREATMENT OF ALZHEIMER'S DISEASE” (priority 2012, published 2015).

Tests used:
plaque = settings: in vivo

Question: What does the source list for “bapineuzumab: humanized antibody from Johnson & Johnson/Pfizer shown to clear plaque”?
Answer: plaque clearance (plaque): clear plaque; benefit trend in phase II clinical trials (Alzheimer's disease): neither antibody showed any trend
